Test [1] addresses β2 receptor (cells expressing human ADRB2 gene) (Homo sapiens (Human), UniProt P07550). The test can be described thus: Agonistic effect on β2 receptor by HTRF cAMP method. Here is the method:
β2 receptor is a G protein-coupled receptor, which is mainly coupled with Gs protein, and can activate adenylate cyclase activity through the Gs protein after being activated by binding to the ligand, thereby increasing the level of intracellular cAMP. In this experiment, the agonistic activity of the compounds against the β2 receptor in vitro was assayed by the cAMP kit.
(§1) β2 cells (expressing human ADRB2 gene) from ICE Bioscience Inc. were grown under standard conditions. The cells were collected and diluted with 1× Stimulation Buffer, and 9 μL of the cell dilution was added to a white low-volume 384-well plate with 1000 cells seeded in each well. Compounds were serially diluted in DMSO in a 5-fold gradient to obtain 10 concentrations. Before testing, compounds that had been serially diluted in DMSO were subjected to 100-fold dilution with 1× Stimulation Buffer to obtain compound working solutions. The concentration of the vehicle DMSO was 0.1%. Eu-cAMP and ULight™-anti-cAMP were diluted to the working concentration with Detection buffer. 5 μL of Eu-cAMP diluent and 5 μL of ULight™-anti-cAMP diluent were sequentially added into corresponding experiment wells. After 1 h of incubation at room temperature, readings at 665 nm and 620 nm were measured under the excitation wavelength of 330 nm using a Biotek microplate reader. The activity of the compounds was obtained by plotting through Ratio (665/620) against the concentration of the compounds, fitting the curve by a nonlinear regression method using GraphPad Prism 7 software and calculating EC50.

Chains of the proteins cited; added tags and fusions are not shown.
UniProt P07550, whole entry: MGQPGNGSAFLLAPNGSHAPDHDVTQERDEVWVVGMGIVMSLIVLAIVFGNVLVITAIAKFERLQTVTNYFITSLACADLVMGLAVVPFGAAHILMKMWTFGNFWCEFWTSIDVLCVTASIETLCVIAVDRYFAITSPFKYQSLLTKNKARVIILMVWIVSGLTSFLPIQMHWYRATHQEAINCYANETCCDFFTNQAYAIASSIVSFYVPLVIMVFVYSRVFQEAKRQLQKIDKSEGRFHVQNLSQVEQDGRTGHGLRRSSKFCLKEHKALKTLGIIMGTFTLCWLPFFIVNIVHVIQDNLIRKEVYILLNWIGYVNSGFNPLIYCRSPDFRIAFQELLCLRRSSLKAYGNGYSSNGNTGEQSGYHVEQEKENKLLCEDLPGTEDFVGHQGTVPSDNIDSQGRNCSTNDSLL
UniProt P08172, whole entry: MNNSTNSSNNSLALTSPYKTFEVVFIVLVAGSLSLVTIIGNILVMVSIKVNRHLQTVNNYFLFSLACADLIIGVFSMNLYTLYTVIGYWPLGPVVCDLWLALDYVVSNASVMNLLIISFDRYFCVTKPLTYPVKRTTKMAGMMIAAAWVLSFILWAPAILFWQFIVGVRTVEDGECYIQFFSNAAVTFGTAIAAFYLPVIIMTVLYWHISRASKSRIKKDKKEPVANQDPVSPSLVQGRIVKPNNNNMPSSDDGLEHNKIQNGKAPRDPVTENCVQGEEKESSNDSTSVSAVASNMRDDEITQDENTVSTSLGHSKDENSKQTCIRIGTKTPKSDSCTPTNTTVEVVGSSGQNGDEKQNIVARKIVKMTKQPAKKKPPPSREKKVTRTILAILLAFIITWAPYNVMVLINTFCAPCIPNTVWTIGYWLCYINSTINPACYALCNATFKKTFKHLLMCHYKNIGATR
UniProt P20309, whole entry: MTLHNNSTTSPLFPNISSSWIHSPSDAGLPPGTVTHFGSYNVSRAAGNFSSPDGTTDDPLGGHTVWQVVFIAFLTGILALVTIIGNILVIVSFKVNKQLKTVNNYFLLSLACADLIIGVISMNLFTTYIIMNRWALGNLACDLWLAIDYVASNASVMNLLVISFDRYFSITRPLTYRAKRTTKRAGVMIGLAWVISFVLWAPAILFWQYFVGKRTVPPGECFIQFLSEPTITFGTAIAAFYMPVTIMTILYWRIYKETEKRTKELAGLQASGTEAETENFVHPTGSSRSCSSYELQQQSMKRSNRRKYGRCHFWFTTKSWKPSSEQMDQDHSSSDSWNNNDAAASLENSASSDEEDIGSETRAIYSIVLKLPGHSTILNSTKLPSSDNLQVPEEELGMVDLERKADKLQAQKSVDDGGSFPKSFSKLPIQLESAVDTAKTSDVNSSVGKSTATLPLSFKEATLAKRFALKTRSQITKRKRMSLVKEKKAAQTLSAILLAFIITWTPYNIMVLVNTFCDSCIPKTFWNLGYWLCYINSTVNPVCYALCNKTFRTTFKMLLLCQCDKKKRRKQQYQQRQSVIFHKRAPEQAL
UniProt P08588, whole entry: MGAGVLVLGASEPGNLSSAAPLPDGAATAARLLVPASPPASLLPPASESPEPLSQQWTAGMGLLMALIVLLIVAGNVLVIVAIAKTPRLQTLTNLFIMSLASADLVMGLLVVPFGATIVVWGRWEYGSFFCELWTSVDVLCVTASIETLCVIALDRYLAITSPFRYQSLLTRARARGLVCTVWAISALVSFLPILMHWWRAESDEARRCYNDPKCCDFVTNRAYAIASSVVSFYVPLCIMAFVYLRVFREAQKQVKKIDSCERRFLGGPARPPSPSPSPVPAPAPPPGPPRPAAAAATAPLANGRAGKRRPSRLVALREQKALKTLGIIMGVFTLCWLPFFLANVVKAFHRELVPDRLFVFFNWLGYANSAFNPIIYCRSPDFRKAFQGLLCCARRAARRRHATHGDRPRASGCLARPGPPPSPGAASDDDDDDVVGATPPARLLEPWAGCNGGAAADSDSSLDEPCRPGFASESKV

Test [2] deals with M2 receptor (Homo sapiens (Human), UniProt P08172). The test can be described thus: M2 receptor affinity test (3H-NMS competition). As to conditions: read-out: IC50, activity against the M2 receptor in vitro, 0.2 nM 3H-NMS, M2 receptor membrane protein, 2 h at room temperature. On the procedure:
M2 receptor is a G protein-coupled receptor. In this experiment, the activity of test compounds against the M2 receptor in vitro was assayed by the competition of radioisotope labeled NMS and non-isotope labeled test compounds for an M2 binding site.
(§2) The M2 receptor membrane protein was prepared at 100 μg/mL by Biology Department of WuXi AppTec, and compounds were serially diluted in a 2.5-fold gradient in DMSO to obtain 10 concentrations. Radioisotope 3H-NMS was prepared at 0.2 nM in an assay buffer (10 mM HEPES, 1 mM MgCl2, pH 7.40). In formal testing, the experimental system comprising 1 μL of the test compound, 100 μL of M2 receptor membrane protein and 100 μL of radioisotope was shaken in a shaker at 300 RPM for 2 h at room temperature. A GF/C plate (Perkin Elmer, Cat No. 6055690) was prefoamed with 0.3% PEI, and the membrane proteins in the reaction solution were collected by filtration onto the GF/C plate. The signal values were read by a Perkin Elmer Microbeta2 instrument and the inhibition rate for each concentration point was shown as a percentage.

Test [3] addresses M3 receptor (Homo sapiens (Human), UniProt P20309). The test can be described thus: M3 receptor affinity test (3H-NMS competition). Particulars: read-out: IC50, activity against the M3 receptor in vitro, 0.2 nM 3H-NMS, M3 receptor membrane protein, 2 h at room temperature. On the procedure: M3 receptor is a G protein-coupled receptor. In this experiment, the activity of test compounds against the M3 receptor in vitro was assayed by the competition of radioisotope labeled NMS and non-isotope labeled test compounds for an M3 binding site.
as §2, with “The experiment was performed by a radioisotope affinity assay. The M3” for “The M2”, “at 10” for “at 100”, “1” for “1 μL”, “of M3” for “of M2”

In test [4] the target is β1 receptor (cells expressing human ADRB1 gene) (Homo sapiens (Human), UniProt P08588). The test can be described thus: Agonistic effect on β1 receptor by HTRF cAMP method. On the procedure: β1 receptor is a G protein-coupled receptor, which is mainly coupled with Gs protein, and can activate adenylate cyclase activity through the Gs protein after being activated by binding to the ligand, thereby increasing the level of intracellular cAMP. In this experiment, the agonistic activity of the compounds against the β1 receptor in vitro was assayed by the cAMP kit.
as §1, with “β1” for “β2”, “ADRB1” for “ADRB2”, “4000” for “1000”

Setting [5] is: read-out: EC50, agonistic activity against the β2 receptor in vitro, 1 h incubation at room temperature, tested form: formate.
Where [6] appears, read: read-out: EC50, agonistic activity against the β1 receptor in vitro, 1 h incubation at room temperature, tested form: formate.
Setting [7] is: read-out: EC50, agonistic activity against the β2 receptor in vitro, 1 h incubation at room temperature, tested form: TFA.
The mark [8] stands for this setting: read-out: EC50, agonistic activity against the β1 receptor in vitro, 1 h incubation at room temperature, tested form: TFA.

The structures appear in SMILES notation. Structures can show the parent of a compound that is named as a salt. Where two headings read alike, the source gives them in different places.

Take `Cc1ccc(C(O)(C(=O)O[C@H]2CC[C@H](N(C)CCCn3cnc4cc(CNC[C@H](O)c5ccc(O)c6[nH]c(=O)ccc56)c5c(c43)CCC5)CC2)c2cccs2)s1` (single isomer, unassigned) [Formate salt of compound 38]: the EC50 – broadly, the concentration needed to bring the measured effect to its halfway point – is 13.5 nM in test [1] (setting [5]) and 338 nM in test [4] (setting [6]). Moreover, the IC50 – broadly, the midpoint of a concentration-inhibition curve – in test [2] (tested form: formate) is 0.842 nM; in test [3] (tested form: formate), 0.555 nM.
On the same counts, the results for `Cc1ccc(C(O)(C(=O)O[C@H]2CC[C@H](N(C)CCCn3cnc4cc(CNC[C@H](O)c5ccc(O)c6[nH]c(=O)ccc56)c5c(c43)CCC5)CC2)c2cccs2)s1` (single isomer, unassigned) [Formate salt of compound 39] are 21.9 nM, 300 nM, 1.25 nM and 0.533 nM.
For the compound `CN(CCCn1nnc2cc(CNC[C@H](O)c3ccc(O)c4[nH]c(=O)ccc34)c3c(c21)CCC3)[C@H]1CC[C@H](OC(=O)C(O)(c2cccs2)c2ccc(Br)s2)CC1` (single isomer, unassigned) [Trifluoroacetate salt of compound 15], the EC50 in test [1] (setting [7]) is 1.89 nM; in test [4] (setting [8]) it was 382 nM. Further, the IC50 in test [2] (tested form: TFA) came to 0.13 nM; in test [3] (tested form: TFA) it was 0.198 nM.
As to `CN(CCCn1nnc2cc(CNC[C@H](O)c3ccc(O)c4[nH]c(=O)ccc34)c3c(c21)CCC3)[C@H]1CC[C@H](OC(=O)C(O)(c2cccs2)c2ccc(Br)s2)CC1` (single isomer, unassigned) [Trifluoroacetate salt of compound 16], the EC50 amounted to 2.16 nM in test [1] (setting [7]) and 276 nM in test [4] (setting [8]). Also, the IC50 worked out at 0.104 nM in test [2] (tested form: TFA) and 0.255 nM in test [3] (tested form: TFA).
On the same counts, the results for `CN(CCCn1nnc2cc(CNC[C@H](O)c3ccc(O)c4[nH]c(=O)ccc34)c3c(c21)CCC3)[C@H]1CC[C@H](OC(=O)C(O)(c2cccs2)c2ccc(Cl)s2)CC1` (single isomer, unassigned) [Trifluoroacetate salt of compound 28] are 1.41 nM, 253 nM, 0.0825 nM and 0.136 nM.
The corresponding values for `CN(CCCn1nnc2cc(CNC[C@H](O)c3ccc(O)c4[nH]c(=O)ccc34)c3c(c21)CCC3)[C@H]1CC[C@H](OC(=O)C(O)(c2cccs2)c2ccc(Cl)s2)CC1` (single isomer, unassigned) [Trifluoroacetate salt of compound 29] are 2.73 nM, 432 nM, 0.146 nM and 0.324 nM.

(Values after patent US20230322745A1, “FUSED TRICYCLIC DERIVATIVE AND PHARMACEUTICAL APPLICATION THEREOF” (CHIA TAI TIANQING PHARMACEUTICAL GROUP CO., LTD., priority 2020, published 2023).)
